# The list shows a part of the results, in another mix than the full data. Calls of active or inactive are those of the source. How the calls were made is not given here.
# Target: Eukaryotic translation initiation factor 4H (Homo sapiens) (UniProt Q15056)
# Assay: human eIF4H binding inhibitors, primary screen, translation initiation inhibitor project, biochemical, uHTS, fluorescence polarization (AID 2012)
# Settings: eIF4H fluorescence polarization binding assay; at 35 µM; hits give high values
row,Compound,inhibition
1,N#Cc1ccc(C(=O)NCC2(N3CCCCC3)CCCCC2)cc1,inactive: 7.1%
2,CC(C)(C)OC(=O)N1CCC(N(C(=O)c2ccccc2)c2ccc(Cl)cc2)CC1,inactive: -1.3%
3,CN(C)C1(CNC(=O)c2cccc(C#N)c2)CCCCC1,inactive: -12.7%
4,CCCN1CCC(Nc2cc(OC)cc(OC)c2)CC1,inactive: 40.9%
5,c1ccc(CN2CCC(Nc3ccccc3)CC2)cc1,inactive: 5.5%
6,COc1ccc(C(=O)NCC2(N3CCOCC3)CCCCC2)cc1OC,inactive: -7.2%
7,CCOC(=O)N1CCC(Nc2ccc(C)cc2)CC1,inactive: 3.6%
8,N/C(=N\O)c1c(N)no[n+]1[O-],inactive: -6.7%
9,O=C(OC1CN2CCC1CC2)C1c2ccccc2C=Cc2ccccc21 (centres undefined),inactive: 12.5%
10,CN1CCC(Nc2ccc(F)c(Cl)c2)CC1,inactive: 16.2%
11,CCOc1ncccc1C(=O)NCC1(N2CCOCC2)CCCCC1,inactive: -6.8%
12,O=C(O)C1(Nc2ccccc2)CCN(Cc2ccccc2)CC1,inactive: 2.3%
13,CC(C)(C)OC(=O)N1CCC(Nc2ccccc2)CC1,inactive: -2.4%
14,CCCOc1ccc(C(=O)NCC2(N(C)C)CCCCC2)cc1,inactive: -10.7%
15,COc1cccc(C(=O)N(c2cc(C)cc(C)c2)C2CCN(C(=O)OC(C)(C)C)CC2)c1,inactive: -8.2%
16,COc1cc(OC)cc(C(=O)NCC2(N3CCOCC3)CCCCC2)c1,inactive: 6.1%
17,CCC(CO)(C(=O)OC1CN2CCC1CC2)c1ccccc1 (centres undefined),inactive: -7.1%
18,CN1CCC(Nc2ccc(Cl)cc2)CC1,inactive: -13.4%
19,CCCOc1ccc(C)cc1CN(CCCl)CCCl,active: 50%
20,COc1cc(OC)cc(C(=O)NCC2(N3CCCCC3)CCCCC2)c1,inactive: -6.8%
21,Fc1ccccc1NC1CCN(Cc2ccccc2)CC1,inactive: 5.3%
22,CCN1CCC(Nc2cccc(F)c2)CC1,inactive: -0.8%
23,CN(C)c1ccc(C(=O)NCC2(N3CCCCC3)CCCCC2)cc1,inactive: -1.2%
24,CCOc1ccc(C)cc1CN(CCCl)CCCl,active: 60.4%
25,CCOC(=O)N1CCC(Nc2ccc(F)cc2)CC1,inactive: -1.7%
26,COc1ccc(NC2CCN(CCc3ccccc3)CC2)c(OC)c1,inactive: -2.7%
27,O=C(NCC1(N2CCCCC2)CCCCC1)c1ccc(F)cc1,inactive: -9.7%

row,Compound,inhibition
1,Cc1ccc(OCC(C)C)c(CN(CCCl)CCCl)c1,active: 59%
2,CCOC(=O)N1CCC(Nc2cccc(C)c2)CC1,inactive: -9.9%
3,COc1cc(C(=O)NCC2(N(C)C)CCCCC2)ccc1OC(F)F,inactive: -9.3%
4,COc1ccc(C(=O)NCC2(N3CCCCC3)CCCCC2)c(OC)c1OC,inactive: -12.9%
5,CC(C)(C)OC(=O)N1CCC(N(C(=O)c2ccccc2)c2ccc(F)cc2)CC1,inactive: -2%
6,COc1ccc(C(=O)NCC2(N3CCCCC3)CCCCC2)cc1,inactive: 4.6%
7,O=C(NCC1(N2CCCCC2)CCCCC1)c1ccc(=O)[nH]c1,inactive: -1.9%
8,CSc1ccccc1C(=O)NCC1(N2CCCCC2)CCCCC1,inactive: -0.6%
9,Cc1cc(C)cc(N(C(=O)c2ccccc2)C2CCN(C(=O)OC(C)(C)C)CC2)c1,inactive: -3.6%
10,O=C(NCC1(N2CCOCC2)CCCCC1)c1cc2ccccc2o1,inactive: -2.4%
11,N#CC1(Nc2ccccc2)CCN(Cc2ccccc2)CC1,inactive: 0.6%
12,O=C(OC1CN2CCC1CC2)C1c2ccccc2Oc2ccccc21 (centres undefined),inactive: -4.6%
13,CCOC(=O)N1CCC(Nc2ccc(OC)cc2)CC1,inactive: -3.4%
14,CC(C)c1ccc(NC2CCN(C(=O)OC(C)(C)C)CC2)cc1,inactive: 8.8%
15,CN(C)c1cccc(C(=O)NCC2(N3CCCCC3)CCCCC2)c1,inactive: 0.1%
16,COc1ccc(CN(CCCl)CCCl)cc1Cl,inactive: 37.4%
17,COc1cc(OC)c(C(=O)NCC2(N(C)C)CCCCC2)cc1OC,inactive: -3.6%
18,CCCOc1ccc(C(=O)NCC2(N(C)C)CCCCC2)cc1OC,inactive: 6.7%
19,O=C(NCC1(N2CCCCC2)CCCCC1)c1ccc(OC(F)F)cc1,inactive: -9.4%
20,N#CC1(Nc2ccccc2)CCN(CCc2ccccc2)CC1,inactive: -12%
21,CCN1CCC(Nc2ccc(Cl)cc2)CC1,inactive: -10.9%
22,O=C(NCC1(N2CCCCC2)CCCCC1)c1cccc([N+](=O)[O-])c1,inactive: -0.8%
23,O=C(NCC1(N2CCCCC2)CCCCC1)c1cccc(C(F)(F)F)c1,inactive: 3.3%
24,O=C(NCC1(N2CCOCC2)CCCCC1)c1cc(=O)[nH]c2ccccc12,inactive: 5.7%
25,COc1cc(C(=O)NCC2(N3CCCCC3)CCCCC2)ccc1OC(F)F,inactive: 3%
26,COc1ccc(NC2CCN(C(=O)OC(C)(C)C)CC2)cc1,inactive: 4.6%
27,CN1CCN(CCOC(=O)C(O)(c2ccccc2)c2ccccc2)CC1,inactive: -8.9%

# — PubChem BioAssay AID2012 (Sanford-Burnham Center for Chemical Genomics, 2009)
